{"source": "paper PMC9060444", "about": "(2022)", "target": "GST-ElpQ (B. burgdorferi strain B31)", "experiment": "SPR; Biacore T200; GST-ElpB or GST-ElpQ immobilised on the sensor chip; C1 complex (twofold series 0.6 to 150 nM), C1r or C1s enzyme or proenzyme injected as analyte; steady-state affinity fits; triplicate"}
{"substance": "human complement C1 complex (from UniProt P02745 23-245; P02746 28-253; P02747 29-245)", "values": [{"measurement": "Kd", "result": 0.011, "unit": "µM"}]}
